Here are results for 25 variants from paper PMC3834829 (2013).

B1: LexA-NSD1-(790–818) [not stated] / AAD-TLX-LBD-(100–385) [not stated] (parent complex)
chain 1: SSQNHIPIEPDYKFSTLLMMLKDMHDSKT
chain 2: RKQVALYFRGHKEENGAAAHFPSAALPAPAFFTAVTQLEPHGLELAAVSTTPERQTLVSLAQPTPKYPHEVNGTPMYLYEVATESVCESAARLLFMSIKWAKSVPAFSTLSLQDQLMLLEDAWRELFVLGIAQWAIPVDANTLLAVSGMNGDNTDSQKLNKIISEIQALQEVVARFRQLRLDATEFACLKCIVTFKAVPTHSGSELRSFRNAAAIAALQDEAQLTLNSYIHTRYPTQPCRFGKLLLLLPALRSISPSTIEEVFFKKTIGNVPITRLLSDMYKSSDI
B2: LexA-BCL11A-(651–670) [not stated] / AAD-TLX-LBD-(100–385) [not stated] (parent complex)
chain 1: NTENVYSQWLAGYAASRQLK
chain 2: B1 chain 2
B3: LexA-BCL11A-(310–325) [not stated] / AAD-TLX-LBD-(100–385) [not stated] (parent complex)
chain 1: PPAMDFSRRLRELAGN
chain 2: B1 chain 2

Variants of B1 are the subject of the first test. The test can be described thus: yeast two-hybrid; read off a plot.
Take chain 1 K13A: the response is about 1400 nmol/mg/min.
For the variant chain 1 Y12A, the response was about 690 nmol/mg/min.
As to chain 1 K22A, the response is about 1300 nmol/mg/min.
chain 1 L18A: the response is about 0 nmol/mg/min.
Consider chain 1 M20A, for which the response is about 210 nmol/mg/min.
On the same count and under the same terms, as for chain 1 L21A, the figure is about 0 nmol/mg/min.
chain 1 S15A: the response is about 0 nmol/mg/min.
Turning to chain 1 F14A, the response was about 0 nmol/mg/min.
As for chain 1 L17A, the response is about 0 nmol/mg/min.
The same measure, in the same setting: as for chain 1 D23A, the figure is about 1100 nmol/mg/min; as for chain 1 M19A, about 1000 nmol/mg/min.

The next test covers variants of B2. The test can be described thus: yeast two-hybrid; read off a plot.
As to chain 1 V5A, the response was about 1800 nmol/mg/min.
Consider chain 1 W9A, for which the response was about 2000 nmol/mg/min.
As to chain 1 L10A, the response is about 0 nmol/mg/min.
For chain 1 G12A, the response was about 1800 nmol/mg/min.
The same measure, in the same setting: then chain 1 S7A, with about 2100 nmol/mg/min.
chain 1 Y13A: the response was about 480 nmol/mg/min.
For chain 1 Y6A, the response was about 220 nmol/mg/min.
Consider chain 1 Q8A, for which the response is about 1900 nmol/mg/min.

The variants in the next test derive from B3. Briefly: yeast two-hybrid; read off a plot.
As for chain 1 L13A, the response was about 0 nmol/mg/min.
With chain 1 R11A, the response is about 980 nmol/mg/min.
As to chain 1 S7A, the response is about 1900 nmol/mg/min.
Regarding chain 1 F6A, the response is about 0 nmol/mg/min.
Regarding chain 1 R8A, the response was about 1300 nmol/mg/min.
For chain 1 L10A, the response was about 0 nmol/mg/min.
